Here are results for one molecule from PMC8062000, “High-throughput screening of the ReFRAME, Pandemic Box, and COVID Box drug repurposing libraries against SARS-CoV-2 nsp15 endoribonuclease to identify small-molecule inhibitors of viral activity” (PLoS ONE, 2021).

The target of the assay is SARS-CoV-2 nsp15 endoribonuclease (endoU) (Severe acute respiratory syndrome coronavirus 2, UniProt P0DTD1). Description: biochemical. The settings on record: read-out: 1° FRET Assay % inhibition.

For orientation: inhibition means the relative decrease from the control value, in per cent.

`COCCn1c2c([n+](Cc3cnccn3)c1C)C(=O)c1ccccc1C2=O` [Sepantronium bromide]: the inhibition at 10 µM amounted to 50%.
